Here are results for 1 compound from patent US20260285897A1, “Neurosteroids and Prodrugs Thereof” (Emory University, priority 2023, published 2026).

By UniProt entry, the sequences of proteins in these tests, tags left out. Where a name states a change or a piece, a line headed by the entry shows the natural chain unless it says otherwise. Residues count along the entry.
UniProt P14867, 28-456: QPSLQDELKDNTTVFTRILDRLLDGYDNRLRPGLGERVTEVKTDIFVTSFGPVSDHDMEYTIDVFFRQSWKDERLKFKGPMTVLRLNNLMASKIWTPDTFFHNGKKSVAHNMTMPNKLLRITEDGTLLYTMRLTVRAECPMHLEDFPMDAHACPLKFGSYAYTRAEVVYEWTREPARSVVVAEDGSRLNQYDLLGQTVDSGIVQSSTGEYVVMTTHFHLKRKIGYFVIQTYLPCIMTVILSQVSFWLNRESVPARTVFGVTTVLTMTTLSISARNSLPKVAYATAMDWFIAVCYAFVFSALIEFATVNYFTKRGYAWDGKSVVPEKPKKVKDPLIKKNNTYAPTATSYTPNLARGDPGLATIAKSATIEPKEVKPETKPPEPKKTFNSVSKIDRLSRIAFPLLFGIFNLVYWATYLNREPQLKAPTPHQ
UniProt P47870, 25-512 limits assumed: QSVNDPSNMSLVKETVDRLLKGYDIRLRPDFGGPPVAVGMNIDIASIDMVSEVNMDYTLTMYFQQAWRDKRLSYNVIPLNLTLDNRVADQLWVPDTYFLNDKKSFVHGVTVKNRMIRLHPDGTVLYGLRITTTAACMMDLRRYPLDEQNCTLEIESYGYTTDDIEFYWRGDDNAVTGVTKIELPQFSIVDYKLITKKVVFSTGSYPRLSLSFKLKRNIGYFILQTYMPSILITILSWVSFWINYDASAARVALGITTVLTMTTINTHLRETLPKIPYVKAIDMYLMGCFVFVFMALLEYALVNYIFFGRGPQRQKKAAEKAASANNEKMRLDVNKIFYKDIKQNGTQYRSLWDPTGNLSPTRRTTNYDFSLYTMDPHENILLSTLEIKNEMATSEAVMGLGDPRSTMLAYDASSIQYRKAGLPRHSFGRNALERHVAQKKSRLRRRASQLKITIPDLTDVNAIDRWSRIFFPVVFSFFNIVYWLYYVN
UniProt P28472, 26-473: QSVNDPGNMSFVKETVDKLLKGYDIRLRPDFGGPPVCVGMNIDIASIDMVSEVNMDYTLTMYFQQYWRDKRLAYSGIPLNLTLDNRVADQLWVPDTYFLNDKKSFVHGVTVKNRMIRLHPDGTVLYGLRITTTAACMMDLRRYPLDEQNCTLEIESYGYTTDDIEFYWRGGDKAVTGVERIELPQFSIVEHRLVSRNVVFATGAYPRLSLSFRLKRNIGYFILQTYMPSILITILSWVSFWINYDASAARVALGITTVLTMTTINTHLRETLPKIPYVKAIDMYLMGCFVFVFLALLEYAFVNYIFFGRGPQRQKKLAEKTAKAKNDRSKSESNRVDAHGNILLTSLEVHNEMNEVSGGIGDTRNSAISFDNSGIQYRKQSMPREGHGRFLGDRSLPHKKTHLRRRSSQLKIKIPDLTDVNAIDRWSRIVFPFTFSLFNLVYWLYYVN
UniProt P48169, 36-554: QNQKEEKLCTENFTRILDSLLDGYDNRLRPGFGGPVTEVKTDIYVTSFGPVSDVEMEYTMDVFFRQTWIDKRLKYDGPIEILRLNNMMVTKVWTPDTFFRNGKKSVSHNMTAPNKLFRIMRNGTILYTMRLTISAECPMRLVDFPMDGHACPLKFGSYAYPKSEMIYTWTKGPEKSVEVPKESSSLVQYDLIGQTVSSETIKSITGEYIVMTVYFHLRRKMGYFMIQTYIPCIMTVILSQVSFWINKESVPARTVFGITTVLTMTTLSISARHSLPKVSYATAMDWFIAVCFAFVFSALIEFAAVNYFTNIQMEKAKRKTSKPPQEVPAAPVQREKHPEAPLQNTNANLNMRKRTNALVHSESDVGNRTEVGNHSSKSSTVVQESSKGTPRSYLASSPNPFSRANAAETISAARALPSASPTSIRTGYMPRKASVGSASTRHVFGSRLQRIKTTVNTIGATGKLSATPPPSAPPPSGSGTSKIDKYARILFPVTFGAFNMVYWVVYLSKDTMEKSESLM

The target of one assay is GABAA α1β2γ2 (Homo sapiens, UniProt P14867+P47870). Description: GABAA electrophysiology, PAM mode, SyncroPatch automated patch clamp. The class given is cell-based. As to conditions: read-out: GABAA α1β2γ2 Maximum Potentiation. As to the method: (§1) The SyncroPatch assay is performed at room temperature. A fast application protocol is used, in which the ligand is rapidly applied and then removed from the cell. To test for PAM mode, the agonist (GABA EC20) is applied three times as a control and to show reproducibility, followed by a minimum 2-minute pre-incubation of client compound and then re-application of agonist (GABA EC20) in the presence of client compound. Finally, a saturating concentration of agonist is applied. A steady-state voltage pulse at −80 mV is applied throughout the assay. Compounds are prepared as 10 mM DMSO stocks.
(§2) Automated patch clamp-recordings are performed using the SyncroPatch 384i. The voltage protocol generation and data collection are performed with Patch Controller 384 V2.2.1 and Data Controller V2.3.0. The PAM activity is calculated using the following equation, [(Icomp/Ireference)−1], where Icomp is the current amplitude in the presence of the compound and Ireference is the current amplitude in the presence of GABA alone. This builds an activation concentration-response curve (CRC), where <0.2 represents no PAM activity and >0.2 represents PAM activity. If a “bell-shape curve” is observed at the higher concentrations, showing a reduction in activity in comparison to previous concentrations, then to allow for a more accurate curve fit, these concentrations are removed from the graphs where necessary and noted in the results table.

The target in another assay is GABAA α4β3δ (Homo sapiens, UniProt P28472+P48169). Described as above. The class given is cell-based. How it is done:
as §1, §2

For the compound `CC(=O)[C@H]1CC[C@H]2[C@@H]3CC[C@H]4C[C@](C)(O)CC[C@]4(C)[C@H]3CC[C@]12C` [Ganaxalone, Ganaxolone, reference compound], the Emax at GABAA α1β2γ2 stood at 252%; at GABAA α4β3δ (read-out: GABAA α4β3δ Maximum Potentiation), 165%. At GABAA α4β3δ (α4β3δ vs α1β2γ2, in words), the “selectivity for GABAA receptor containing the delta (δ) subunit compared to a GABAA receptor without it” value is “not observed”.
